Results reported in paper PMC9798004 (Frontiers in Psychiatry, 2022).

The chains behind the UniProt entries cited, without tags or fusion partners. Where a name states a change or a piece, a line headed by the entry shows the natural chain unless it says otherwise. Residues count along the entry.
UniProt P30411, whole entry: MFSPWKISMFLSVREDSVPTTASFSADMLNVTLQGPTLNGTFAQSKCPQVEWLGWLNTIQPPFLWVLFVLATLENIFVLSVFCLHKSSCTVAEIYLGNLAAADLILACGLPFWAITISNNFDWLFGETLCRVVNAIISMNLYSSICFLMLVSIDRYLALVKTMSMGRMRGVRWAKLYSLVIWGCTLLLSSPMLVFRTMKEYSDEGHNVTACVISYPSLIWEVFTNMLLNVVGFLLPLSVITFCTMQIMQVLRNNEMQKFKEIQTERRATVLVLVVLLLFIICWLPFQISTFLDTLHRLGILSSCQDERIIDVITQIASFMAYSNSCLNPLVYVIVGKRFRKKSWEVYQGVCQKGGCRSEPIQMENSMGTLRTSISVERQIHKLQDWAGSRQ
UniProt P25101, 21-427: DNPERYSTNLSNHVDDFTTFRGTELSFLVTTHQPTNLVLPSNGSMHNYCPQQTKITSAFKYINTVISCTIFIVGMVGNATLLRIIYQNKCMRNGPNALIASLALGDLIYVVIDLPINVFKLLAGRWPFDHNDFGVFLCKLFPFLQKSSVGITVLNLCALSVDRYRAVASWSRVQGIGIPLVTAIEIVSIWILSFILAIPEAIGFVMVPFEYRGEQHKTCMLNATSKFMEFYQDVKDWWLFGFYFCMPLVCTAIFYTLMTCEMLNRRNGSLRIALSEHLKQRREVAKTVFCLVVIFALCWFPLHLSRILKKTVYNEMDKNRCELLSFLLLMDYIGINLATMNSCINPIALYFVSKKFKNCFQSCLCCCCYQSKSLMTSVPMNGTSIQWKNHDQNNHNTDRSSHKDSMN
UniProt Q969F8, whole entry: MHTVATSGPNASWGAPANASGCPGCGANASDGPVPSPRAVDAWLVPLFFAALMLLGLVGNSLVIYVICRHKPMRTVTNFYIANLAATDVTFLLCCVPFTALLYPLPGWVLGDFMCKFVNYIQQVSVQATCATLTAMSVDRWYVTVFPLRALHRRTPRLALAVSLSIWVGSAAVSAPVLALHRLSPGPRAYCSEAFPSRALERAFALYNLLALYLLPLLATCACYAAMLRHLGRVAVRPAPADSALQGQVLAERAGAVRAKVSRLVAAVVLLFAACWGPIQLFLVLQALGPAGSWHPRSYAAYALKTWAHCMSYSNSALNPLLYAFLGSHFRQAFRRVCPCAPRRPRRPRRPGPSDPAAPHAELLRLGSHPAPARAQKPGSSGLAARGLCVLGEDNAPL
UniProt P41968: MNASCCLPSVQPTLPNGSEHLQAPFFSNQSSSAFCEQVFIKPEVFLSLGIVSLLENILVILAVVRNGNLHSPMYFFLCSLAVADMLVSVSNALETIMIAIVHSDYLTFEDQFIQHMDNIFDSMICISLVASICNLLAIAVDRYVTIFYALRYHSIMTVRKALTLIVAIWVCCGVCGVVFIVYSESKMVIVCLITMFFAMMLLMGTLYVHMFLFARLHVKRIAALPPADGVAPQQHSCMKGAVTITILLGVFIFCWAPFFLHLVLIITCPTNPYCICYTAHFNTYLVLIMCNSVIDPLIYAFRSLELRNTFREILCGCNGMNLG
UniProt Q01726: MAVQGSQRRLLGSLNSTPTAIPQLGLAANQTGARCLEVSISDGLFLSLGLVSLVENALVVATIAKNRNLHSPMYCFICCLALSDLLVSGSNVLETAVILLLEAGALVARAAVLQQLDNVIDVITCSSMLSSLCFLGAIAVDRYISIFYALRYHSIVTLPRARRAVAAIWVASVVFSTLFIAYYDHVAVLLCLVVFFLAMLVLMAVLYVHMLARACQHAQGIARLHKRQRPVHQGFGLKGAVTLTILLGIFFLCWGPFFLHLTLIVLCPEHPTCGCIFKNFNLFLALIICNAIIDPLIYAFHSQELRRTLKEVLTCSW
UniProt P33032: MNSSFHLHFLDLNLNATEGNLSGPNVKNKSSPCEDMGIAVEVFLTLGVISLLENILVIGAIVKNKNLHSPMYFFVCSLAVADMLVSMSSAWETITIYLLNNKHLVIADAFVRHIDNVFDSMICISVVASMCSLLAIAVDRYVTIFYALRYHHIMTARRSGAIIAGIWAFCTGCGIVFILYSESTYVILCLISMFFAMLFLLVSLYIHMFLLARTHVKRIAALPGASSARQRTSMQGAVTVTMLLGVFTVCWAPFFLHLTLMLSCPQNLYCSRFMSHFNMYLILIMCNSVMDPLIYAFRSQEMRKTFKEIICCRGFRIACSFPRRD
UniProt P28336: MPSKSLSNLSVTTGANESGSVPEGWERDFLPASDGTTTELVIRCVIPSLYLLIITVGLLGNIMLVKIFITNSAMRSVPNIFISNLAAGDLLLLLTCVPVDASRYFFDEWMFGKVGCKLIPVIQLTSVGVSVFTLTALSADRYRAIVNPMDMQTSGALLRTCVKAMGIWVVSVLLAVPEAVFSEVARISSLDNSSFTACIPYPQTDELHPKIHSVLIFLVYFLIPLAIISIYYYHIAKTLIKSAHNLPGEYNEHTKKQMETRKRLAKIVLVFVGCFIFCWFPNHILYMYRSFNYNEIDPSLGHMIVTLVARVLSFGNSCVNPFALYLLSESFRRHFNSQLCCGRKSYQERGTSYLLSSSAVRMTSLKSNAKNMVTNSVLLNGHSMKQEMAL
UniProt P30874: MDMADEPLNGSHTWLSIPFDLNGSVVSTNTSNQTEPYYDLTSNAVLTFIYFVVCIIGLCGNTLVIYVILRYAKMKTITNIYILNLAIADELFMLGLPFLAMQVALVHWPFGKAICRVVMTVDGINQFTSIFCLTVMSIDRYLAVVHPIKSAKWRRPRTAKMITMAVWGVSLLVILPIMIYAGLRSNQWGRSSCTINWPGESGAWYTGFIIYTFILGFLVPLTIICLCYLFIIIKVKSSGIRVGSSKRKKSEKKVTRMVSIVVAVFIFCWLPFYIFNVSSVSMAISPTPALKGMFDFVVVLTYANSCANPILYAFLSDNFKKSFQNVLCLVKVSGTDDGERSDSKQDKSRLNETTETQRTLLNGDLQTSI
UniProt P35346: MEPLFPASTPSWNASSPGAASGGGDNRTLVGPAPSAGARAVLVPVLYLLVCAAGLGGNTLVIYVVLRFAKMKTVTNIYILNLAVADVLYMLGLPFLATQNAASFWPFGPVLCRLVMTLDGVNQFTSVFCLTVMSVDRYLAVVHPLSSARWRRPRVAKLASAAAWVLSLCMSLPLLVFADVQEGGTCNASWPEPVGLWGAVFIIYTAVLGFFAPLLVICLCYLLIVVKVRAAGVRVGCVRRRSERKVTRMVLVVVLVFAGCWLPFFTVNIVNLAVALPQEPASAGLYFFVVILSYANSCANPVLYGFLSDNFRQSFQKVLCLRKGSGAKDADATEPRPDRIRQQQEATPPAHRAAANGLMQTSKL
UniProt P30872: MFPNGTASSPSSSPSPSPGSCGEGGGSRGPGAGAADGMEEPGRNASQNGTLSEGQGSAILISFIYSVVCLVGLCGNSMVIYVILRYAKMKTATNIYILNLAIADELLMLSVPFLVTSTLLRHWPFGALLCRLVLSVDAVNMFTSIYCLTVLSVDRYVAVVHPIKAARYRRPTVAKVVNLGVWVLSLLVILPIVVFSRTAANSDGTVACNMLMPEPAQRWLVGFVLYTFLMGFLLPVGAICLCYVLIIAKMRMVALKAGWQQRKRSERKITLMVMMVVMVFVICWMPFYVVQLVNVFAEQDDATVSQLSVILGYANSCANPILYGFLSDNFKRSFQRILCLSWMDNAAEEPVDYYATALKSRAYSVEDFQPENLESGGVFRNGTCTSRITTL

Legend:
Test in all cases: PathHunter β-arrestin assay
BDKRB2 = BDKRB2 (Homo sapiens, UniProt P30411); details: screen, control agonist; CHO, RT, 2HR
EDNRA = EDNRA (Homo sapiens, UniProt P25101); details: screen, control agonist; CHO, RT, 2HR
KISS1R = KISS1R (Homo sapiens, UniProt Q969F8); details: screen, control agonist; U20S, 37C, 2HR
MC3R = MC3R (Homo sapiens, UniProt P41968); details: control agonist
MC1R = MC1R (Homo sapiens, UniProt Q01726); details: screen, control agonist; U20S, 37C, 2HR
MC5R = MC5R (Homo sapiens, UniProt P33032); details: control agonist
NMBR = NMBR (Homo sapiens, UniProt P28336); details: screen, control agonist; CHO, RT, 2HR
OXTR = target: T1, OXTR (Homo sapiens, UniProt P30559); details: control agonist
T1 sequence (P30559 1-389): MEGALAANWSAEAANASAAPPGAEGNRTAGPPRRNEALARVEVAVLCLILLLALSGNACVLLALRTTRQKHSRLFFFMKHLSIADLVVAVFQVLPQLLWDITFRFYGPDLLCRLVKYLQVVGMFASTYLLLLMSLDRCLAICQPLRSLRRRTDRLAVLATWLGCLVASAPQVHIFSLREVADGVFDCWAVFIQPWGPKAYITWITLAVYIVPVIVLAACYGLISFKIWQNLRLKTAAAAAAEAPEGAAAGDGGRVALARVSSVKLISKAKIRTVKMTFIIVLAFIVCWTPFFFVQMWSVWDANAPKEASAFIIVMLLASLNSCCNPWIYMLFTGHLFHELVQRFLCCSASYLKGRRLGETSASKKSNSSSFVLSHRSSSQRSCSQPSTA

ADCYAP1R1 = target: T2, ADCYAP1R1 (Homo sapiens, UniProt P41586); details: screen, control agonist; CHO, 37C, 2HR
T2 sequence (P41586 21-468): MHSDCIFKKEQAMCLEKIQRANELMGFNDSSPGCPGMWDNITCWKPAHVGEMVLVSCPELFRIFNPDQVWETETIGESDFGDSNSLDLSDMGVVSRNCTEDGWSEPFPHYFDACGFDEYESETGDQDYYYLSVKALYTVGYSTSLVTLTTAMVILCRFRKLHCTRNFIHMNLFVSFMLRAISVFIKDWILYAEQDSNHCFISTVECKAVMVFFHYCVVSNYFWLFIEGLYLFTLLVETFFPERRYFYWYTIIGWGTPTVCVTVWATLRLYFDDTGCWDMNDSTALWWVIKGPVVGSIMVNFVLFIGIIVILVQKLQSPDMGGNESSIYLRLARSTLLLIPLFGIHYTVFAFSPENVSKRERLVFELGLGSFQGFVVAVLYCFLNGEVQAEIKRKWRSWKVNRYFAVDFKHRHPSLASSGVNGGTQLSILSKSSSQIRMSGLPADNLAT

CRHR1 = target: T3, CRHR1 (Homo sapiens, UniProt P34998); assay type: cell-based; details: screen, control agonist; CHO, 37C, 2HR
T3 construct: purchased Eurofins DiscoverX (PathHunter gpcrMAX)
T3 sequence (P34998 24-415): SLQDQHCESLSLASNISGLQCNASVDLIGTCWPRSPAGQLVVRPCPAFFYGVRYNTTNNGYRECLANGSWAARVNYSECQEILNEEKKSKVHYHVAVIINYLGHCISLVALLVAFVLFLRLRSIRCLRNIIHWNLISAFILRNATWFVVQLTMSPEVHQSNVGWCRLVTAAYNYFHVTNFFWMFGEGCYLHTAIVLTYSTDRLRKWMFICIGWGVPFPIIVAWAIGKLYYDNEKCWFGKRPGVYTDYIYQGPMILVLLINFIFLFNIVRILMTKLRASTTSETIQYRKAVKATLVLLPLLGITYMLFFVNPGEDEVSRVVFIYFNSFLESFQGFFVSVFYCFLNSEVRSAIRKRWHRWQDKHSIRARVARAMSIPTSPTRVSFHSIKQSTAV

SSTR2 = SSTR2 (Homo sapiens, UniProt P30874); details: screen, control agonist; CHO, 37C, 2HR
SSTR5 = SSTR5 (Homo sapiens, UniProt P35346); details: screen, control agonist; CHO, 37C, 2HR
SSTR1 = SSTR1 (Homo sapiens, UniProt P30872); details: screen, control agonist; U20S, 37C, 2HR
BRS3 = target: T4, BRS3 (Homo sapiens, UniProt P32247); details: screen, control agonist; CHO, 37C, 2HR
T4 sequence (P32247 1-399): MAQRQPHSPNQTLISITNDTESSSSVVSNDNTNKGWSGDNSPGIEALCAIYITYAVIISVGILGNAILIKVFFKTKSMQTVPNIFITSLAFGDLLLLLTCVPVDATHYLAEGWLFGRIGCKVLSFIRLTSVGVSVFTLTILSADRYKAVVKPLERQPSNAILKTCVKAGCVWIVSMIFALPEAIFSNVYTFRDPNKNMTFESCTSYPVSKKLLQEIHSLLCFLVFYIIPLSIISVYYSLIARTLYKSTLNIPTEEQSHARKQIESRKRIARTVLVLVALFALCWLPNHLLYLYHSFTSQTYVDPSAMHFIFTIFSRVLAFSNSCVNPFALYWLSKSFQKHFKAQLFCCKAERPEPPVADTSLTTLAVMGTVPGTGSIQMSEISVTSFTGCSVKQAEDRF

[1] = follow-up concentration-response assays

## Bradykinin
BDKRB2
  EC80: 3.29 nM

## Endothelin I
EDNRA
  EC80: 0.0174 µM

## Kisspeptin-10
KISS1R
  EC80: 0.038 µM

## Melanotan II
MC3R; [1]
  EC80: 2.98 nM
MC3R; screen, U20S, 37C, 2HR
  EC80: 8.96 nM
MC1R
  EC80: 557 pM
MC5R; [1]
  EC80: 0.05 µM
MC5R; screen, CHO, 37C, 2HR
  EC80: 0.0173 µM

## Neuromedin B
NMBR
  EC80: 9.32 nM

## Oxytocin
OXTR; [1]
  EC80: 7.35 nM
OXTR; screen, CHO, 37C, 2HR
  EC80: 7.35 nM

## PACAP-27
ADCYAP1R1
  EC80: 3.85 nM

## Sauvagine
CRHR1
  EC80: 3.52 nM

## Somatostatin 28
SSTR2
  EC80: 8.38 nM
SSTR5
  EC80: 0.0422 µM
SSTR1
  EC80: 0.0622 µM

## TAPN-Bombesin
BRS3
  EC80: 6.56 nM
